Article PMC6350255 (Journal of medicinal chemistry, 2018)
“Also recorded” adds a separate entry of the source.

Tested on: human β-cells (dispersed human pancreatic islets)
Assay type: cell-based
Conditions: doses of 3–30 μM

Structure (SMILES): COc1ccc2c(c1)[nH]c1c(CO)nccc12 [Compound 2–2, 1-Hydroxymethyl-7-methoxy-9H-β-carboline]
- human β-cell proliferation in words, dose response / overall: excellent human β-cell proliferation; also recorded: caused proliferation in a dose-dependent manner; also recorded: comparable to that of harmine
